Paper PMC8343220, “The selectivity of α‐adrenoceptor agonists for the human α1A, α1B, and α1D‐adrenoceptors” (Pharmacology Research & Perspectives, 2021)

Chains of the proteins cited; added tags and fusions are not shown.
UniProt P35368, whole entry: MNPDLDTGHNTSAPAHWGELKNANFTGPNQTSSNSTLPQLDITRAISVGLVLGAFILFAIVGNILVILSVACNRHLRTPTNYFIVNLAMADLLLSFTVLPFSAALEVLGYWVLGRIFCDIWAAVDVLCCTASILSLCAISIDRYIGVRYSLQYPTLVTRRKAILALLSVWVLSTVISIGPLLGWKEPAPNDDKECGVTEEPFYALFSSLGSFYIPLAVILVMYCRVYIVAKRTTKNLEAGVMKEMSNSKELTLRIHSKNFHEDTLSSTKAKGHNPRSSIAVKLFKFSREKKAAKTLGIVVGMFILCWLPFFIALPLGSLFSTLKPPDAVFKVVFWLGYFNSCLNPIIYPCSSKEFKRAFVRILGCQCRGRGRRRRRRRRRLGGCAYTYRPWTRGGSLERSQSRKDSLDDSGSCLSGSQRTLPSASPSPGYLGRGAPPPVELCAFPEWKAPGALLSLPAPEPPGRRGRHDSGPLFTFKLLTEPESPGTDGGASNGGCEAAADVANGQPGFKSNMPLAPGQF
UniProt P25100, whole entry: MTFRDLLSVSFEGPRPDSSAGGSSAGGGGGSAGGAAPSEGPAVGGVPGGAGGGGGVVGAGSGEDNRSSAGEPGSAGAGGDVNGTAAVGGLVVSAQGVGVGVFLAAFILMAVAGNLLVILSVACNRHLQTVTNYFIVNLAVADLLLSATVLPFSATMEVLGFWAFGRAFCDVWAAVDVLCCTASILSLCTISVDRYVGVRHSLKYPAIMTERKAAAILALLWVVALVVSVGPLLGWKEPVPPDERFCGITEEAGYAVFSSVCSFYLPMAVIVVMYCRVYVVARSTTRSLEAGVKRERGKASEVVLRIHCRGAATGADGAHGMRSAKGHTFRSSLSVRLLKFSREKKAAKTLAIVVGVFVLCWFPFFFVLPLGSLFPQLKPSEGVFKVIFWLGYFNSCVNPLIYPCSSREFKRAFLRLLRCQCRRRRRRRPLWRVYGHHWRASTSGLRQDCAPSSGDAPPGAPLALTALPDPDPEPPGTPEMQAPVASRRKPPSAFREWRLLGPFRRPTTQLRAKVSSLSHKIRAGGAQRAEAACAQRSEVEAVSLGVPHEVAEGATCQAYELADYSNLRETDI

Key:
[1] = molecular target: T1, human α1A‐adrenoceptor (Homo sapiens, UniProt P35348); details: CHO‐α1A cells; given as log KD (negative); ligands marked ^a; ref Proudman et al., 2020; cited from earlier work
T1 construct: expressed in transfected cells; host or cells: CHO-K1
T1 sequence (P35348 1-466): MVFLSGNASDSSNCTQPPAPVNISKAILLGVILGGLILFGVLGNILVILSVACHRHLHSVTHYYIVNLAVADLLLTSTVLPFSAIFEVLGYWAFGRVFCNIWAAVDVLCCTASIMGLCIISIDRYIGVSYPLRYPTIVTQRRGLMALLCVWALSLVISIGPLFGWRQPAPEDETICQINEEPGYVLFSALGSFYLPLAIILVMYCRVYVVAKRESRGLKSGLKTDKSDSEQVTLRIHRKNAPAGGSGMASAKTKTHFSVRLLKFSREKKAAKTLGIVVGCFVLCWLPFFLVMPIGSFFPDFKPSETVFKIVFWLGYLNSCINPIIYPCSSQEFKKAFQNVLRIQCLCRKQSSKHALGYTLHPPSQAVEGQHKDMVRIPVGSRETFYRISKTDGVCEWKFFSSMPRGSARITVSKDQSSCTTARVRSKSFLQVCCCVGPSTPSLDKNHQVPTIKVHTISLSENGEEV

[2] = molecular target: T2, human α1B‐adrenoceptor (Homo sapiens, UniProt P35368); assay: ^3H‐prazosin whole‐cell radioligand binding, CHO‐α1B cells
T2 construct: expressed in transfected cells; host or cells: CHO-K1

[3] = molecular target: T1, human α1A‐adrenoceptor; assay: ^3H‐cAMP accumulation in the presence of 10 μM forskolin, CHO‐α1A cells; assay type: cell-based
[4] = molecular target: T1, human α1A‐adrenoceptor; assay: ^3H‐cAMP accumulation, CHO‐α1A cells; assay type: cell-based
[5] = molecular target: T1, human α1A‐adrenoceptor; assay: ERK1/2‐phosphorylation (Surefire Alphascreen), CHO‐α1A cells; assay type: cell-based
[6] = molecular target: T2, human α1B‐adrenoceptor; assay: ^3H‐cAMP accumulation, CHO‐α1B cells; assay type: cell-based
[7] = molecular target: T2, human α1B‐adrenoceptor; assay: ^3H‐cAMP accumulation in the presence of 10 μM forskolin, CHO‐α1B cells; assay type: cell-based
[8] = molecular target: T1, human α1A‐adrenoceptor; assay: Intracellular free calcium mobilization, CHO‐α1A cells; assay type: cell-based
[9] = molecular target: T2, human α1B‐adrenoceptor; details: cited from earlier work
[10] = molecular target: T2, human α1B‐adrenoceptor; assay: ERK1/2‐phosphorylation (Surefire Alphascreen), CHO‐α1B cells; assay type: cell-based; details: for bi‐phasic responses the initial stimulatory part, read-out: ERK1/2‐phosphorylation Log EC50 (converted)
[11] = molecular target: T3, human α1D‐adrenoceptor (full length) (Homo sapiens, UniProt P25100); assay: Intracellular free calcium mobilization, CHO‐α1D cells; assay type: cell-based
T3 construct: human α1D‐adrenoceptor (full length) were used; expressed in transfected cells; host or cells: CHO-K1

[12] = molecular target: T2, human α1B‐adrenoceptor; assay: Intracellular free calcium mobilization, CHO‐α1B cells; assay type: cell-based
[13] = molecular target: T3, human α1D‐adrenoceptor (full length); assay: ^3H‐prazosin whole‐cell radioligand binding, CHO‐α1D cells
[14] = molecular target: T1, human α1A‐adrenoceptor; assay: ^3H‐prazosin whole‐cell radioligand binding, CHO‐α1A cells
[15] = CHO‐α1A cells, 2–4 min, ^a bi‐phasic: initial stimulatory part, ^b also active in parent CHO cells, read-out: ERK1/2‐phosphorylation Log EC50 (converted)

In the case of CC(CCc1ccccc1)NCC(O)c1ccc(O)c(C(N)=O)c1 (stereo not shown) [Labetolol], the “Log KD α1A, ^3H‐prazosin whole cell binding” value [1] is listed as −7.33 ± 0.04, the Kd ([2]; Log KD, ^3H‐prazosin binding) is listed as 1230 nM and the EC50 [3] is listed as 40.7 nM. The EC50 [4] was 35.5 nM, the EC50 [5] was 30.9 nM and the “cAMP accumulation Log EC50” value [6] was “No response”. The “cAMP accumulation (in presence of forskolin) Log EC50” value ([7]; in presence of forskolin) was “No response”, the EC50 [8] was 12.6 nM and the “Log KD α1B, ^3H‐prazosin whole cell binding” value [9] was −5.91 ± 0.03.
With Cc1cccc(Cc2c[nH]cn2)c1C [Detomidine] the EC50 [10] was 67.6 nM, the “Intracellular calcium release % Ionomycin at 100 µM” value [11] was 3.8 ± 0.8% and the “Intracellular calcium release % ionomycin” value [12] was 33.8 ± 1.7%. The “Log efficacy ratio KD /EC50” value [12] was 1.84, the EC50 ([12]; read-out: Intracellular calcium release Log EC50 (converted)) was 32.4 nM and the Kd ([2]; CHO‐α1B cells, given as log KD (negative), mean ± SEM) was 2240 nM. For the same molecule, the Kd ([2]; Log KD, ^3H‐prazosin binding, CHO‐α1B cells, whole‐cell binding (from Table 1), given as log KD (negative numbers)) was 2240 nM, the “Affinity selectivity ratio α1B vs α1D” value [13] was 2.3 fold and the EC50 ([3]; CHO‐α1A cells, 10 μM forskolin, read-out: cAMP accumulation (in presence of forskolin) Log EC50 (converted)) was 36.3 nM. For the same molecule, the “cAMP accumulation (in presence of forskolin) Fold increase” value ([3]; CHO‐α1A cells, fold increase of the forskolin response) was 1.95 ± 0.13 fold, the EC50 ([4]; CHO‐α1A cells, 5 h, read-out: cAMP accumulation Log EC50 (converted)) was 141 nM and the EC50 [5, 15] was 8.91 nM. For the same molecule, the EC50 ([6]; read-out: cAMP accumulation Log EC50 (converted)) was 12.6 nM, the “cAMP accumulation (in presence of forskolin) Fold increase” value ([7]; fold increase of the forskolin response) was 1.57 ± 0.07 fold and the EC50 ([7]; in presence of forskolin, read-out: cAMP accumulation (in presence of forskolin) Log EC50 (converted)) was 12.9 nM. For the same molecule, the “Affinity selectivity ratio α1A vs α1B” value [14] was 15.8 fold, the “Affinity selectivity ratio α1A vs α1D” value [14] was 6.9 fold and the Kd ([14]; CHO‐α1A cells, given as log KD (negative), mean ± SEM) was 141 nM. The “Intracellular calcium release % ionomycin” value [8] was 47.7 ± 1.8% and the “Log efficacy ratio KD /EC50” value [8] was 1.20.
With COc1ccccc1N1CCN(CCN2C(=O)CC3(CCCC3)CC2=O)CC1 [BMY7378] the “cAMP accumulation Log EC50” value ([4]; CHO‐α1A cells, 5 h) was “No response”, the EC50 [5, 15] was 155 nM and the EC50 ([8]; CHO‐α1A cells, given as log EC50 (negative), read-out: Intracellular calcium release Log EC50 (converted)) was 91.2 nM.
In the case of CC(Cc1ccc(O)cc1)NCC(O)c1cc(O)cc(O)c1 (stereo not shown) [Fenoterol], the “Log efficacy ratio KD /EC50” value [12] is reported as 2.36, the “Affinity selectivity ratio α1B vs α1D” value [13] is reported as 2.8 fold and the “Affinity selectivity ratio α1A vs α1B” value [14] is reported as 24.0 fold. For the same molecule, the “Affinity selectivity ratio α1A vs α1D” value [14] was 8.7 fold and the “Log efficacy ratio KD /EC50” value [8] was 1.22.
